Our source for the IC50 values is US20240207300A1, “COMBINATION THERAPIES INCLUDING MYT1 INHIBITORS” (Repare Therapeutics Inc., priority 2021, published 2024).

Sequences of proteins named here, by UniProt entry; tags and fusion partners are left off.
UniProt Q99640, whole entry: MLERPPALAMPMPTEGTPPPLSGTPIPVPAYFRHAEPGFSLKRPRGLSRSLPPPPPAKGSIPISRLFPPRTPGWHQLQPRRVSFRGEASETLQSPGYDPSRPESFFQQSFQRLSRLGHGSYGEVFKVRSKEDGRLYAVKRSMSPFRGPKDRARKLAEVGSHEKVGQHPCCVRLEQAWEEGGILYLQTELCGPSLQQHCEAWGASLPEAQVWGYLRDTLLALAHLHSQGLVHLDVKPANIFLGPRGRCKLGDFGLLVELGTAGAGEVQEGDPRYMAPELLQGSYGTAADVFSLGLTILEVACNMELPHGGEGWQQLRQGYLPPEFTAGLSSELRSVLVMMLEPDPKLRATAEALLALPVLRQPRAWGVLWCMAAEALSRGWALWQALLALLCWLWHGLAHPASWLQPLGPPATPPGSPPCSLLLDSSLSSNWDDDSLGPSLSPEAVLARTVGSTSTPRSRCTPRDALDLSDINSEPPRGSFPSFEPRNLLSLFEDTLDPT

The target in the assay is recombinant human Myt1 (Homo sapiens (Human), UniProt Q99640). Briefly: Recombinant human Myt1 kinase ADP-Glo enzymatic assay. Type of assay: biochemical. The note with it: read-out: Myt1 IC50, recombinant human Myt1 18 nM, ATP 10 μM. On the technique in general: In ADP-Glo the light output rises with the ADP produced.
In the case of `Cc1ccc(O)c(C)c1-n1c(N)c(C(N)=O)c2nc(C(C)C)cnc21`, the IC50 is less than 0.01 µM.

Turning to `CCc1cnc2c(n1)c(C(N)=O)c(N)n2-c1c(C)ccc(O)c1C`, the IC50 was less than 0.01 µM.

For `Cc1ccc(O)c(C)c1-n1c(N)c(C(N)=O)c2nc(C3(C(F)(F)F)CC3)cnc21` [Compound 200], the IC50 is more than 2 µM.

Regarding `C#Cc1cnc2c(n1)c(C(N)=O)c(N)n2-c1c(C)ccc(O)c1C`, the IC50 was less than 0.01 µM.

For orientation: IC50 means the concentration at which inhibition is half-maximal.
